# Only a part is listed here, and it is no random draw. Results filed as inconclusive are left out. For some assays here: Results with a measured potency or affinity are listed apart. The source made the active and inactive calls. Unless noted, calls follow the shape of the dose curve; as a rule, active = well fitted curve in the direction sought with a large enough effect; inconclusive = small, poorly fitted or top-dose-only effect, or another doubt; inactive = no such curve, though single readings can be large; an effect the other way counts as inactive or inconclusive.
# Protein sequences, listed by entry. Tags and fused reporters are not part of them. Lines headed by an entry give the natural chain unless they say otherwise; changes in a name come on top.
# UniProt Q12809: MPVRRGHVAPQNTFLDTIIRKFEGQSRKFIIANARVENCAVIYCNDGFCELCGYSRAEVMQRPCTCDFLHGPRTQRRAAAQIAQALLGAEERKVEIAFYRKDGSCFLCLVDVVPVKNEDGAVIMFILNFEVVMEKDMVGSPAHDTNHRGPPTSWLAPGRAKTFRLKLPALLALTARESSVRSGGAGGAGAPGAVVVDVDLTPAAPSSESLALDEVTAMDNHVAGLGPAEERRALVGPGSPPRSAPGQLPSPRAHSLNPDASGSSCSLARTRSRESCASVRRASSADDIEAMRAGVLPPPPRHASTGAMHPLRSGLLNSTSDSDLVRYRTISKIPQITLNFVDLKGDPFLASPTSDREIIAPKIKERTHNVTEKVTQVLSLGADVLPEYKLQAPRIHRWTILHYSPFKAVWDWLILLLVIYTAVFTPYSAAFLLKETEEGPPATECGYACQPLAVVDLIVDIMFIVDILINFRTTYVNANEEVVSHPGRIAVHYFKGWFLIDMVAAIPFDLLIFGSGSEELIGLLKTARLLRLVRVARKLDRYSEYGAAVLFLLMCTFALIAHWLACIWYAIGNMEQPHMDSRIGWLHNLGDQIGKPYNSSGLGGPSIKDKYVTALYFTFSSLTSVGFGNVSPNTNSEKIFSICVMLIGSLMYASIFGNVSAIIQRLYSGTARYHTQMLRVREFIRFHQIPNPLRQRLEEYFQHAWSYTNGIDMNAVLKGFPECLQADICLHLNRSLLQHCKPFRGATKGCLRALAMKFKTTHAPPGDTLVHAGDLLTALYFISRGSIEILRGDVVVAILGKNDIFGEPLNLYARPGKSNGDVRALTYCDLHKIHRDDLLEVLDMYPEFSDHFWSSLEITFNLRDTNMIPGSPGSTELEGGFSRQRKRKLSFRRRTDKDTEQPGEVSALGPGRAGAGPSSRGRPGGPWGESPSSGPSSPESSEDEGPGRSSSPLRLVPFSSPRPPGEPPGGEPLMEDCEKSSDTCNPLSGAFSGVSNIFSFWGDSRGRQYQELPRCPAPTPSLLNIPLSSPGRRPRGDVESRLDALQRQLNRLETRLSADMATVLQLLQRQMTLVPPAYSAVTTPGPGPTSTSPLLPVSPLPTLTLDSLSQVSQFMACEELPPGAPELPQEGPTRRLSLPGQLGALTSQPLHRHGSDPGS
# UniProt O94925: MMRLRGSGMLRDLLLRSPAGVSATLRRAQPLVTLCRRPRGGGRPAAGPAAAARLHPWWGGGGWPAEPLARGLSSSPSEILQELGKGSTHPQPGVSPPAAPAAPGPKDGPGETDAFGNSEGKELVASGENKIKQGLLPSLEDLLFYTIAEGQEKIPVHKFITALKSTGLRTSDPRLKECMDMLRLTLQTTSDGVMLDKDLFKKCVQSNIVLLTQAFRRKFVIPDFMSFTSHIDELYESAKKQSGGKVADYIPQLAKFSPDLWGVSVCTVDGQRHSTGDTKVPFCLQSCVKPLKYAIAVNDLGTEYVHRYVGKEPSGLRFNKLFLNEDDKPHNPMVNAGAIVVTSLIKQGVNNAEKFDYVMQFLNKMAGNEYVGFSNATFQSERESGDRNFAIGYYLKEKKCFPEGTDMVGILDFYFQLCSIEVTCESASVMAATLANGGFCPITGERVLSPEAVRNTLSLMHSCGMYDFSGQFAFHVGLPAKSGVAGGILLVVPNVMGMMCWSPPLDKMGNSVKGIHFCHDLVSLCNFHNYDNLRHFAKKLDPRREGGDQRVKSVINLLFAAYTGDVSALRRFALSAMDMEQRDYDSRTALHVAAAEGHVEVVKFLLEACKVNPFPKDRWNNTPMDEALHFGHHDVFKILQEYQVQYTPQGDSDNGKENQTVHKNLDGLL
# UniProt P43220, whole entry, looked up: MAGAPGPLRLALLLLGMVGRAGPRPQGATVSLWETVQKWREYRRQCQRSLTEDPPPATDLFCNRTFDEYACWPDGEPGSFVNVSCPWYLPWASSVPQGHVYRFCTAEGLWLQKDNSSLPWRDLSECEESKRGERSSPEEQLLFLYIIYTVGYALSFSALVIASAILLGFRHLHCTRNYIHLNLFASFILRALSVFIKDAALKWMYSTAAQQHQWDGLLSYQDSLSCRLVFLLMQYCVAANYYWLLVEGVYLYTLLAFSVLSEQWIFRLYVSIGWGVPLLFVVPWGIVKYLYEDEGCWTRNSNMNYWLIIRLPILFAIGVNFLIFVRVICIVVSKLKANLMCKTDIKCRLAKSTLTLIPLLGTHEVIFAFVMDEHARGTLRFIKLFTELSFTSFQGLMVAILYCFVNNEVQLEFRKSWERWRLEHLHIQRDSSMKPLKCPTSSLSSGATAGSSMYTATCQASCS
# UniProt P15289: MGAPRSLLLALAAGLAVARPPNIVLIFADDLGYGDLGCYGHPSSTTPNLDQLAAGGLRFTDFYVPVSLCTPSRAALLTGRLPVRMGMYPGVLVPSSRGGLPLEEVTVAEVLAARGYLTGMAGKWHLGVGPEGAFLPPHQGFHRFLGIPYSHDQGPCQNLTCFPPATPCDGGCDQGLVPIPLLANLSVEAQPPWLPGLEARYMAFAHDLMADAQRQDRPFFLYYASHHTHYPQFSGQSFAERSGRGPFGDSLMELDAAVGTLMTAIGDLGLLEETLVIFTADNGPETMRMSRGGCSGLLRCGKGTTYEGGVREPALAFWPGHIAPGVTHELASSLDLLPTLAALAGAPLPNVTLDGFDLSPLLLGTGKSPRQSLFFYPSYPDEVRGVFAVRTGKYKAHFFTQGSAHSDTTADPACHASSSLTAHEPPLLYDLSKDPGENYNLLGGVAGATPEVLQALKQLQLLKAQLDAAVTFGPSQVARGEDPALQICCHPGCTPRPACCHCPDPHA
# UniProt P35557, whole entry, looked up: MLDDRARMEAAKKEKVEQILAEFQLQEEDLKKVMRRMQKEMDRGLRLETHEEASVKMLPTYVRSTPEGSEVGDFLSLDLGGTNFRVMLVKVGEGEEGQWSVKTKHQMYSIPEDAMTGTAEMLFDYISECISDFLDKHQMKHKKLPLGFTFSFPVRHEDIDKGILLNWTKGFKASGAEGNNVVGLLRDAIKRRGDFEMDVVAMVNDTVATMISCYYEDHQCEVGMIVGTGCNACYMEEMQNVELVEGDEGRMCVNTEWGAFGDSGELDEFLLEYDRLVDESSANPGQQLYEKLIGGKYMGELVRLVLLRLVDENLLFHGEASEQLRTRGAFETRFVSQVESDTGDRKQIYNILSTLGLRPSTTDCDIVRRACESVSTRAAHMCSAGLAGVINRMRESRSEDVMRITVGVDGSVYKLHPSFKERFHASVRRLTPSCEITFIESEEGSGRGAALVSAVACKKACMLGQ
# UniProt Q14397: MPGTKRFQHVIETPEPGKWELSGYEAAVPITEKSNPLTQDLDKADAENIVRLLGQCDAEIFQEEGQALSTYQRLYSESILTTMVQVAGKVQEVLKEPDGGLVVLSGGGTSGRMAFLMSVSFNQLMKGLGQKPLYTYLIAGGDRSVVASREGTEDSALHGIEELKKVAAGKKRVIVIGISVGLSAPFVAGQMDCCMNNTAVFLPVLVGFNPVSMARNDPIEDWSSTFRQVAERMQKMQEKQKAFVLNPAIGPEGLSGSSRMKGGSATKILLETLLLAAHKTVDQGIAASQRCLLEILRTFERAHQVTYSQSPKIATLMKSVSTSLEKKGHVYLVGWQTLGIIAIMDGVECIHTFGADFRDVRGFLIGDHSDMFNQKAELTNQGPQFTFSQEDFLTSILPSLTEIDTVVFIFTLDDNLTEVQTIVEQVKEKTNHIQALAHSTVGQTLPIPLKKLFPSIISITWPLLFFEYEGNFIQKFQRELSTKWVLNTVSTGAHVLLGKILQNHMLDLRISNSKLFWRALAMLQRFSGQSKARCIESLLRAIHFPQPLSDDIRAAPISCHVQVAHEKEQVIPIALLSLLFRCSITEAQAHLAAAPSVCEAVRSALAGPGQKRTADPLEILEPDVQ
# Key:
# [1] = qHTS for Inhibitors of ATXN expression: Validation (AID 588378); settings: cell-based ATXN2 expression reporter assay, luminescence; at 57.1 µM (top of the series); also: % is scaled to controls: 0 for no effect and ±100 for the full control effect; nearly all actives have a fitted effect of over 75% in size
# Procedure, shortened: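 Cells: HEK293-ATXN2-FFLuc, phenol-red free DMEM, 2 h attachment. Compound pin-transfer, 24 h, 37 degrees C, 5% CO2. CellTiter-Fluor 30 min, Ex405/Em525; Bright-Glo 5 min, luminescence 2 s exposure.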
# [2] = biological target: Voltage-gated inwardly rectifying potassium channel KCNH2 (Homo sapiens) (UniProt Q12809); assay: qHTS Assay for Small Molecule Inhibitors of the Human hERG Channel Activity (AID 588834); settings: U2OS BacMam hERG, FluxOR thallium flux fluorescence; at 46.1 µM (top of the series) unless noted;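 also: U2OS cells transduced with hERG by BacMam; top concentration of the series differs between compounds; % is scaled to controls: 0 for no effect and ±100 for the full control effect; lower thallium flux fluorescence means stronger hERG block; nearly all actives have a fitted effect of over 50% in size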
# [3] = biological target: Glutaminase kidney isoform, mitochondrial (Homo sapiens) (UniProt O94925); assay: qHTS for Inhibitors of Glutaminase (GLS): LOPAC Validation (AID 624146); also: potency is read from the fitted curve at half-maximal effect; nearly all actives have a fitted effect of over 60% in size
# Procedure, shortened: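 Coupled fluorescence readout: glutamate oxidase/HRP/Amplex Red detect glutamate formed by hKGA from L-glutamine (1 mM solution added). Buffer 45 mM KH2PO4 pH 8.2, 0.02% Tween-20; reads at t0 and 30 min RT.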
# [4] = biological target: Glucagon-like peptide 1 receptor (Homo sapiens) (UniProt P43220); assay: qHTS of GLP-1 Receptor Agonists: LOPAC Validation (AID 624148); settings: GLP-1R agonist cell assay; at 46.1 µM (top of the series);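 also: luminescence from a luciferase reporter switched on by cAMP; 0% is about no effect; higher luminescence signal means agonism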
# Procedure, shortened: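 Agonism scored as increased luciferase luminescence driven by cAMP in HEK293 clones carrying GLP-1R. Cells settled 12 hours, received compound for 4-6 hr at 37 deg C, 5% CO2, and were read after 12 min detection reagent at RT.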
# [5] = qHTS of Nrf2 Activators: LOPAC Validation (AID 624149); settings: Nrf2/ARE reporter cell assay; at 46.1 µM (top of the series); also: 0% is about no effect
# Procedure, shortened: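 AREc32_Fluc cells, 1000/well in OPTI-MEM with 5% FBS, grown overnight, then exposed to compounds for 24 hr at 37 deg C, 5% CO2. ARE-driven firefly luciferase read by Steady-Glo luminescence after 30 min at RT.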
# [6] = HTS Assay for Allosteric Antagonists of the Human D2 Dopamine Receptor: Hit Validation in HTRF (AID 624455); settings: D2 receptor cells, HTRF cAMP read-out, antagonist mode; at 46.1 µM (top of the series);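 also: stable D1 dopamine receptor cell line scored for blocking the D1 response; % is scaled to controls: 0 for no effect and ±100 for the full control effect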
# Procedure, shortened: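 Hit validation in cells stably expressing the D1 dopamine receptor, run in HTRF format. Compounds were tested for their ability to inhibit the D1-mediated response.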
# [7] = biological target: Arylsulfatase A (Homo sapiens) (UniProt P15289); assay: qHTS screen for enhancers of Arylsulfatase A (ASA1): LOPAC Validation Assay (AID 720538); settings: ASA enzyme activity, LOPAC qHTS enhancer assay; activity change, positive = activation: at 57.5 µM (top of the series); also: 0% is about no effect
# Procedure, shortened: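 Read-out: fluorescence at Ex=525/Em=598 nm after 1N NaOH final stop. Patient fibroblasts carrying ASA-I179S had 48h compound exposure, then 14h room-temperature pNCS hydrolysis (0.5mM final) in lysis buffer. Signal increase = enhanced activity.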
# [8] = qHTS for compounds that reverse cellular toxicity of Amyloid beta (A-beta) peptide in yeast: LOPAC Validation Assay (AID 720559); settings: yeast expressing A-beta; at 46.1 µM (top of the series);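 also: plate controls were DMSO for no effect and equimolar ferric chloride plus clioquinol rescue for full effect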
# Procedure, shortened: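 OD600 growth readout after 48 hr at 30 C; A-beta-toxic yeast plus pinned compounds in medium. Normalization: DMSO = negative, equimolar FeCl3 + clioquinol = positive.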
# [9] = qHTS for Activators of Parkin Expression: LOPAC Validation Assay (NLuc Reporter) (AID 720572;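 also: 0% = DMSO and 100% = positive control compound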); settings: Parkin promoter NanoLuc reporter cells, luminescence, percent of positive control, DMSO as zero; at 46.1 µM (top of the series)
# Procedure, shortened: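 Parkin promoter-driven FLuc/NLuc neuronal reporter cells; 24 h plating, 7-pt dose response, 24 h at 37 C/5% CO2; FLuc then NanoLuc reagent, 10 min each, luminescence; DMSO/positive control normalized.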
# [10] = qHTS for Activators of Parkin Expression: LOPAC Validation Assay (FLuc Reporter) (AID 720573;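 also: 0% = DMSO and 100% = positive control compounds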); settings: Cell line, PRKN promoter firefly luciferase reporter, vehicle wells = 0, positive control = 100%; at 46.1 µM (top of the series)
# Procedure, shortened: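 FLuc luminescence read-out from a neuronal line expressing a Parkin-promoter-driven coincidence reporter. Cells treated 24 h at 37 C, 5% CO2 with compounds at 7 concentrations; signal increase normalized to DMSO and positive control.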
# [11] = biological target: T1, Hexokinase-4 (Homo sapiens) + Glucokinase regulatory protein (Homo sapiens) (UniProt P35557+Q14397); assay: qHTS assay for inhibitors of recombinant human GCK-GKRP interaction: Diaphorase-coupled assay (AID 743205); settings: G6PDH/diaphorase resorufin fluorescence; at 57.5 µM (top of the series)
# Procedure, shortened: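 Resorufin fluorescence (525/590 nm), read each minute over 30 min, reports GCK activity coupled via G6PDH and diaphorase. Reaction: 10 nM GST-GCK, 10 nM FLAG-GKRP, 5 mM glucose, 0.4 mM ATP, 0.15 mM NADP+, 0.1 mM resazurin.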
# [12] = biological target: T1, Hexokinase-4 (Homo sapiens) + Glucokinase regulatory protein (Homo sapiens); assay: qHTS assay for inhibitors of recombinant human GCK-GKRP interaction: ADP-Glo assay (AID 743206); settings: ADP-Glo luminescence, 60 min, 0% = vehicle-only wells with enzyme present; at 76.9 µM (top of the series);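 also: plate controls were DMSO plus enzyme for no effect and no enzyme for full effect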
# Procedure, shortened: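 GST-GCK and FLAG-GKRP (15 nM each in the dispensed mix, with 2 uM S6P) react with 0.4 mM ATP and 5 mM glucose (final) in Hepes pH 7.6 for 60 min at room temperature. ADP is measured by ADP-Glo luminescence.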
# [13] = biological target: T1, Hexokinase-4 (Homo sapiens) + Glucokinase regulatory protein (Homo sapiens); assay: qHTS assay for inhibitors of recombinant human GCK-GKRP interaction: HTRF assay (AID 743207); settings: recombinant GCK-GKRP HTRF binding, 60 min, with sorbitol-6-phosphate; at 57.5 µM (top of the series);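 also: 0% = DMSO with GCK present and -100% = DMSO wells lacking GCK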
# Procedure, shortened: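 HTRF read-out (ex 320 nm; 615/665 nm emission) after 60 min RT equilibration of 5 nM GST-GCK, 5 nM FLAG-GKRP, 2 uM S6P, compound and anti-FLAG/anti-GST detection antibodies; signal normalized between DMSO wells with and without GCK.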
# [14] = Natriuretic polypeptide receptor (hNpr1) antagonism - Pilot counterscreen GloSensor control cell line (AID 1347045; calls by dose curve; also: % is scaled to controls: 0 for no effect and ±100 for the full control effect); settings: GloSensor cAMP control cell line, luminescence counterscreen; at 38.3 µM (top of the series)
# Procedure, shortened: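 HEK293 cGMP GloSensor cells preloaded 2 h with 2% GloSensor reagent, then compound 30 min before baseline luminescence read. Stimulated with 50 uM sodium nitroprusside, 20 min at room temperature, then read again; counterscreen for Npr1 antagonism.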
compound,measurement,setting,value
CN(C(=O)Cc1ccccc1)[C@@H]1CC[C@]2(CCCO2)C[C@H]1N1CCCC1,"activity change, negative = inhibition",[1],inactive: 2.07%
same,"activity change, negative = inhibition",[2],inactive: 28.2%
same,Potency,[3],active: 20 µM
same,activation,[4],inactive: -1.17%
same,activation,[5],inactive: -1.45%
same,"activity, negative = inhibition",[6],inactive: -0.743%
same,"activity change, positive = activation",[7],inactive: -10.8%
same,"growth rescue, positive = activation",[8],inactive: -11%
same,activation,[9],inactive: 8.44%
same,activation,[10],inactive: 0.743%
same,"activity change, positive = activation",[11],inactive: -1.14%
same,"activity, positive = activation",[12],inactive: 1.5%
same,"activity change, negative = inhibition",[13],inactive: 5.98%
same,"activity change, negative = inhibition",[14],inactive: 14.6%
